Measured values published in BindingDB's records for PubMed 9223568 (Yamanouchi Pharmaceutical, 1997).

The chains behind the UniProt entries cited, without tags or fusion partners.
UniProt Q00788, whole entry: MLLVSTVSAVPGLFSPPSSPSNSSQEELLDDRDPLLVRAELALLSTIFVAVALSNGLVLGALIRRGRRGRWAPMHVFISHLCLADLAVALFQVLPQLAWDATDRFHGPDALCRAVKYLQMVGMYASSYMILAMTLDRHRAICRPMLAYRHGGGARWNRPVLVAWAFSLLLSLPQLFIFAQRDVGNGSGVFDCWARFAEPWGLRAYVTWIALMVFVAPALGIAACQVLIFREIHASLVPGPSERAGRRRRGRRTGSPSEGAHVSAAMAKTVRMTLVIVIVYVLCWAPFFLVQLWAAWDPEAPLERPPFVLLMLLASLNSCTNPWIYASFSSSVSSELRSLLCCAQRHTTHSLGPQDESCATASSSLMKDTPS

Molecular target: Vasopressin V2 receptor (Rattus norvegicus, UniProt Q00788)

NC(=O)CC[C@@H]1NC(=O)[C@H](Cc2ccccc2)NC(=O)[C@H](Cc2ccc(O)cc2)NC(=O)[C@@H](N)CSSC[C@@H](C(=O)N2CCC[C@H]2C(=O)N[C@@H](CCCN=C(N)N)C(=O)NCC(N)=O)NC(=O)[C@H](CC(N)=O)NC1=O [[3H]Argipressin tannate]
Ki: 3.23 nM and 0.46 nM

Values joined by “and” are separate entries in the source; they are usually repeats but may differ in a detail not shown here. Equal values may be shown once.
